This passage reports IC50 results from BindingDB's records for patent US9828378 (Intellikine, 2017).

By UniProt entry, the sequences of proteins in these tests, tags left out. Where a name states a change or a piece, a line headed by the entry shows the natural chain unless it says otherwise.
UniProt P42338: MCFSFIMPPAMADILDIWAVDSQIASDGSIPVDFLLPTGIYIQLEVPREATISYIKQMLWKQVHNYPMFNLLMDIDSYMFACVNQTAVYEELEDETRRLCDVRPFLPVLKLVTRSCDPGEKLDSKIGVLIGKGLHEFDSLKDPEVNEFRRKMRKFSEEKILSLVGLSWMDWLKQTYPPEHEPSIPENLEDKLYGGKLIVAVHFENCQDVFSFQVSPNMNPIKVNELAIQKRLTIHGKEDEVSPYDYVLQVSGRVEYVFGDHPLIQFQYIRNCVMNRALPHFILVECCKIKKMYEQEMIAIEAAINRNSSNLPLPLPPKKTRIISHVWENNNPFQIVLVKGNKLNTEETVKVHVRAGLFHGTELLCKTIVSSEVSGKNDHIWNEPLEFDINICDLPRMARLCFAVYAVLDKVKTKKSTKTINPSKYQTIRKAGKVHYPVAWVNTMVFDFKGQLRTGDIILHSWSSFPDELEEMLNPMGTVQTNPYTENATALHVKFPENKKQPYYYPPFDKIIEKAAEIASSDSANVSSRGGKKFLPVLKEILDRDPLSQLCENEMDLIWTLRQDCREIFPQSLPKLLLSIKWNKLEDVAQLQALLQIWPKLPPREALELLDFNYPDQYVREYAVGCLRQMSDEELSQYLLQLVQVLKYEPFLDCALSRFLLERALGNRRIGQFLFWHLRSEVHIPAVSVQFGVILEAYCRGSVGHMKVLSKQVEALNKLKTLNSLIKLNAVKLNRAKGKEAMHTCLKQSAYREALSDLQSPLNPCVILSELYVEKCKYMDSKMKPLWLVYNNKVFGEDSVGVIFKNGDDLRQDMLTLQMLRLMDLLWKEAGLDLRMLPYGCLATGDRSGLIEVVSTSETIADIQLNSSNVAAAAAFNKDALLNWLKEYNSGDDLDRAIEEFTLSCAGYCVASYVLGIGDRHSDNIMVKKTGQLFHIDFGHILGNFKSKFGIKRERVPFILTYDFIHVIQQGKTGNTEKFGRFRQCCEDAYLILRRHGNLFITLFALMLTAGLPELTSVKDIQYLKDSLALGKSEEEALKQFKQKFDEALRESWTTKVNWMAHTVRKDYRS

The assay addresses Phosphatidylinositol 4,5-bisphosphate 3-kinase catalytic subunit beta isoform (Homo sapiens, UniProt P42338).

What is called IC50 is the concentration that gives 50% inhibition. A lower IC50 goes with inhibition by little substance. `CC(C)n1nc(-c2cc3c(Cl)c(O)ccc3[nH]2)c2c(N)ncnc21` [US9828378, # 22] showed a half-inhibitory concentration (IC50) of more than 500 nM.
